Test system: HCT116 cell lines
Test: IC50 and cell viability assay of clinical drugs (CCK-8)
Format: cell-based, human
Conditions: CCK-8, absorbance 450 nm, triplicate, mean ± SD, Resistance = drug does not affect cell viability
Method: All the mediums were purchased from […].
To determine suitable cell seeding number for each cell line, different number (300, 500, 1000, 3000) of cells/wells were seeded in a 96-well plate. A cell viability was determined using a real-time viability assay (RealTime-Glo™ Assay Reagent). Luminescence intensities were measured at different time points (4, 8, 16, 24, 36, 48, 60 and 72 hours) to evaluate a cell growth curve. To establish IC50 values of ten drugs on each cell line, gradient concentrations of each drug were prepared. 5-FU, Oxaliplatin, Gemcitabine, Irinotecan, Leucovorin, Regorafenib, Lenvatinib are small molecule drugs, which were prepared with final concentrations of 100, 50, 25, 10, 5, 1, 0.1, 0.01 and 0.001 μM; and Bevacizumab, Cetuximab, Panitumumab are macromolecular drugs, which were prepared with the final concentrations of 1, 0.5, 0.25, 0.1, 0.05, 0.01, 0.001, 0.0001 and 0.00001 μM. The cell viability was measured with Cell Counting Kit 8 (e.g., CCK-8 purchased from Dojindo molecular technologies, Japan), and cell viability assay was performed after 2 hours of incubation by measuring the absorbances at 450 nm. Relative cell numbers were determined as compared with the control cells. All experiments were performed in triplicate manner, and data were represented as expressed as mean±standard deviation (mean±SD).

## Cetuximab [Cetuximab (C)]
  IC50 (μM) ± SD: Resistance

Source: patent US20240207237A1, “METHOD OF SCREENING FOR DRUG COMBINATION FOR COLORECTAL CARCINOMA TREATMENT, DRUG COMBINATION AND USE THEREOF” (National Tsing Hua University, priority 2022, published 2024)
